According to patent publication US20220125886A1, “CO-FORMULATIONS OF AMYLIN ANALOGUES WITH INSULIN ANALOGUES FOR TREATMENT OF DIABETES” (The Board of Trustees of the Leland Stanford Junior …, priority 2019, published 2022):
Where two headings read alike, the source gives them in different places.

Assays:
[1] = in humans; cited from earlier work
[2] = in pigs; cited from earlier work
[3] = diabetic pigs, co-formulation (1:6) containing CB[7]-PEG at 10-13 meals over six weeks
[4] = healthy Sprague Dawley rats, 0.2 mg/kg daily for six weeks

Substance: insulin
- insulin duration of action [1]: 4 h
- insulin duration of action [2]: 2 h

Substance: cucurbit[7]uril (CB[7])-poly(ethylene glycol) (PEG) conjugate [CB[7]-PEG]
- liver and kidney histology (H&E, Masson's Trichrome), treated vs untreated (end of six weeks, single-blind assessment): no differences in fat content or fibrosis
- ALP [4]: within the range of healthy rats
- AST [4]: within the range of healthy rats
- BUN [4]: within the range of healthy rats
- creatine [4]: within the range of healthy rats
- ALT (healthy Sprague Dawley rats, 0.2 mg/kg daily for six weeks, days 14, 28, 42): within the range of healthy rats
- ALT [3]: within the normal range for healthy pigs
- AST [3]: within the normal range for healthy pigs
- BUN [3]: within the normal range for healthy pigs
- bilirubin [3]: within the normal range for healthy pigs
- creatinine ([3]; Week 0 vs Week 6 p=0.001): within the normal range for healthy pigs
